Experimental data from patent US5885834A, “Antisense oligodeoxynucleotide against phosphodiesterase” (priority 1997, dated 1999).

Test system: NA
Details: 100 μM
Procedure: Cells (10^6) were collected by centrifugation at 670×g for 5 min. The cell pellets were rinsed once with 0.2M dibasic sodium phosphate and lysed in 300 μl of lysis buffer (50 mM Tris/HCl pH 7.5, 10 mM EDTA, 1% V/V Triton X-100) for 20 min on ice. Proteinase K was added to 0.5 mg/ml and DNase-free RNase was added to 50 μg/ml and the extract incubated at 37° C. for 1 hr. DNA was then extracted in phenol/chloroform (1:1) and chloroform (1:1) and precipitated in 2.5 volumes of ethanol. The extracted DNA was electrophoresed on 2% agarose gels, the gels stained with 0.5 μg/ml ethidium bromide and photographed under UV light.

SMILES: CCOC(=O)C1=C[C@]2(CC)CCCN3CCc4c(n1c1ccccc41)[C@@H]32 [vinpocetine]
- Induction of apoptosis: induced apoptosis
